Drawing on paper PMC4792735 (Clinical pharmacokinetics, 2016), this text covers IC50 for one compound.

One assay addresses T1, human MATE2K (Homo sapiens, UniProt Q86VL8).
T1 sequence (Q86VL8 1-566 isoform Q86VL8-3): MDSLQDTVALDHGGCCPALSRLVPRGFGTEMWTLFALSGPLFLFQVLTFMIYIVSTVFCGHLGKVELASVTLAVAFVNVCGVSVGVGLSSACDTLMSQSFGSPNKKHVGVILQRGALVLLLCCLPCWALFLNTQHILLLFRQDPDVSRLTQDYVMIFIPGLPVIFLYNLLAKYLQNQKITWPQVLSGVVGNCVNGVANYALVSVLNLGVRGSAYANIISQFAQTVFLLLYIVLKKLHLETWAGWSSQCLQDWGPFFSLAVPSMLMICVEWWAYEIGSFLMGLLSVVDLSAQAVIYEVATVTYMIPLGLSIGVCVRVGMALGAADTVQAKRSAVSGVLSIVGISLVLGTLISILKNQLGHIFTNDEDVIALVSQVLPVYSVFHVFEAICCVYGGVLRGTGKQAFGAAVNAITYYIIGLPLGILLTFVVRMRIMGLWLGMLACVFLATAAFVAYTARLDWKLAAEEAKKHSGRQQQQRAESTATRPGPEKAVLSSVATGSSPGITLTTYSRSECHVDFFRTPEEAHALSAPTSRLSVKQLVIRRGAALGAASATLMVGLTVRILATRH
Kind of assay: cell-based.

For the next assay, the target named is T2, human MATE1 (Homo sapiens, UniProt Q96FL8).
T2 sequence (Q96FL8 1-570): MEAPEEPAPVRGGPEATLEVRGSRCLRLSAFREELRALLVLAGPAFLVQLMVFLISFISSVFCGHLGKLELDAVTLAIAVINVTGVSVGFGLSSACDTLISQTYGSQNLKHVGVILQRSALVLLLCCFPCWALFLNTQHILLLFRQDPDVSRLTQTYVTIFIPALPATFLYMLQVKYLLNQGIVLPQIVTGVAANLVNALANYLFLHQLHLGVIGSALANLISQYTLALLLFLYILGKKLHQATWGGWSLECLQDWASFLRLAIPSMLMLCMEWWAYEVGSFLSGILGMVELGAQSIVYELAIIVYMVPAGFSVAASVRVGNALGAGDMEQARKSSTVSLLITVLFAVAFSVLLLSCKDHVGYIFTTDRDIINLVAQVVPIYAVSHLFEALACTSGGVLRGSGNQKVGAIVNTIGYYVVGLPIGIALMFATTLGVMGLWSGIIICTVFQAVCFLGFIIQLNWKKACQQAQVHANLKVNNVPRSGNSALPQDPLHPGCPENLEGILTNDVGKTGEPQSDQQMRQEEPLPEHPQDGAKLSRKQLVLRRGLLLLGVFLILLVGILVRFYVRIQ
Briefly: cell-based.

As for `Cc1nccn1CC1CCc2c(c3ccccc3n2C)C1=O` (centres unmarked) [ondansetron], the IC50 came out at 80 nM against human MATE2K and 50 nM against human MATE1.
